The text below walks through data of BindingDB's records for doi:10.1021/acs.jmedchem.0c00262 (University of Leeds, 2020).

The assay in a line: Antagonist activity at GP6 in human platelet assessed as reduction in CRP-induced platelet-aggregation preincubated for 60 secs followed by collagen stimulation by light transmission aggregometry.

Turning to `CCCCc1nc(Cl)c(CO)n1Cc1ccc(-c2ccccc2-c2nnn[nH]2)cc1` [NSC_3961], the IC50 worked out at 4 µM.

A word on the IC50: it is the concentration that inhibits the measured activity by half.
